# Earlier results, collected in patent US10449216B2, “Modulating drug effects against metabotropic glutamate receptor with extracellular calcium” (GEORGIA STATE UNIVERSITY RESEARCH FOUNDATION, INC., priority 2013, dated 2019).
# Amino acid sequences for entries named in this document (tags omitted). Residues count along the entry.
# UniProt P41594, 21-1212: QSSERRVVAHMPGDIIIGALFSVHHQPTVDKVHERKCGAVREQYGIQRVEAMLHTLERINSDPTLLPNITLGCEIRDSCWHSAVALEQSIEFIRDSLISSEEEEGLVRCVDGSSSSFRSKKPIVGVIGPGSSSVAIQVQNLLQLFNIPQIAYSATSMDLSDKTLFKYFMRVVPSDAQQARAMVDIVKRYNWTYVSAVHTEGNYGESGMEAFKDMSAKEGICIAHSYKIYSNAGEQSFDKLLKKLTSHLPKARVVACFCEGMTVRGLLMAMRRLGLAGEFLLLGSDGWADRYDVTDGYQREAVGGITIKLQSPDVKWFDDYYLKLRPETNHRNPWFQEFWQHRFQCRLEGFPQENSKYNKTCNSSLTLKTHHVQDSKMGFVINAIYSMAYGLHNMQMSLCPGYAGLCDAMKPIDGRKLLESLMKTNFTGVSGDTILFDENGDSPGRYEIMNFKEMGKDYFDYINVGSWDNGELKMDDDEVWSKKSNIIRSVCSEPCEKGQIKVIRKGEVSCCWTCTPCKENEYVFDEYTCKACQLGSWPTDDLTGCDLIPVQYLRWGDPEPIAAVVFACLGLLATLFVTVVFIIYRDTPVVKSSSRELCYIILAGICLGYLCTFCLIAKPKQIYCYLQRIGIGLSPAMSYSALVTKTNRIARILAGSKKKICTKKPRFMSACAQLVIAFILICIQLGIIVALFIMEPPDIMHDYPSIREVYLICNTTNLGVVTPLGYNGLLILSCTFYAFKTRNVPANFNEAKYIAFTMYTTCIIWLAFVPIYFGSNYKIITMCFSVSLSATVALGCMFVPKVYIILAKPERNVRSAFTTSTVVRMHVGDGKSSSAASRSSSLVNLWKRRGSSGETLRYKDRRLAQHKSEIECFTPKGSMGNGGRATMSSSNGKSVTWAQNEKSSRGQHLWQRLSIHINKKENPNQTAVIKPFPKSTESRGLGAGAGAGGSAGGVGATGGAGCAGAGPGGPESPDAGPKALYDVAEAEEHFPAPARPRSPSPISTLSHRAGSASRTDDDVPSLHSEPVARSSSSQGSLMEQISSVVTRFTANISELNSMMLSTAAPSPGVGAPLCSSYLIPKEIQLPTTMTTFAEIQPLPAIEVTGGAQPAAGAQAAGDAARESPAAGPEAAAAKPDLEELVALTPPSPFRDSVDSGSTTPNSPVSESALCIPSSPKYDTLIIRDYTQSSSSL
# Target: mGluR5 (Homo sapiens, UniProt P41594)
# Conditions: mGluR5, Sp. Hs; cited from earlier work
substance,measurement,value
MTEP,Affinity (pKi),7.8 pKi
